Values of other authors in US20230183323A1 (BROWN UNIVERSITY, priority 2020, published 2023).

Biological target: CDK2 (Homo sapiens, UniProt P24941)
Set-up: key to the marks not given beside the values
Conditions: cited from earlier work

## CC(C)[C@H](CO)Nc1nc(Nc2cccc(Cl)c2)c2ncn(C(C)C)c2n1
  Inhibitory potency CDK2: +++
